## AlphaSeq binding of Ab-95 light chain variants to a spike HR2 peptide

Reference: Engelhart et al. 2022, doi:10.1038/s41597-022-01779-4. File: FLAb, binding data.

Target: peptide PDVDLGDISGINAS, taken from heptad repeat 2 (HR2) of SARS-CoV-2 spike.

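The parent was found by panning a naive human phage display library on the peptide. The library (AAYL52) carries one to three amino acid substitutions per variant, with no insertions or deletions. In AlphaSeq, yeast of one mating type display the scFv and yeast of the other type display the target. The frequency of each diploid, read from paired DNA barcodes, reflects how well the two displayed proteins bind. Read counts were normalised to the haploid input and turned into Kd by a linear fit to BCL2-family pairs of known affinity, for each replicate. The assay was run in three technical replicates.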

Ab-95 is the parent antibody, in scFv form: VH, then the linker GGGGSGGGGSGGGGS, then VL. The heavy chain is unchanged in all variants.
VH: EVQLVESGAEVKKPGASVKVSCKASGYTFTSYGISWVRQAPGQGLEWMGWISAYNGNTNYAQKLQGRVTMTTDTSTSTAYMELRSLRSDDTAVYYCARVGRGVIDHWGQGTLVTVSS
VL: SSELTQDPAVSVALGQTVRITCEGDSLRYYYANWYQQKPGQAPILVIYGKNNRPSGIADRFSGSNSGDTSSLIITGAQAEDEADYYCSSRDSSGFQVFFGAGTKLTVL

Each variant's VL is given in full. This list gathers variants with a substitution at Q96 (VL, numbered from residue 1). Numbers give log10(Kd / nM), so 0 is 1 nM and 3 is 1 µM. Smaller is tighter. The mean shown is taken over the replicates in which the pair was detected. A pair that was not seen in any replicate is written "nd"; this usually means weak binding, but a binder can also be missed. Entries are sorted by rising average, undetected variants last. Three control strains display no target. For library AAYL52, 28% of the pairings with them gave a signal, with a median of 3.91 and one signal in twenty below 2.90, so weak values seen in few replicates may be background. Also given: how often the same scFv was detected with the empty control strains.

VL,"log10 Kd (nM), mean",detected,empty controls
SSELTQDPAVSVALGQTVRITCEGDSLRYYEANWYQQKPGQAPILVIYGKNNRPSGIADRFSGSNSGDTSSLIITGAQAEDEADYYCSSVDSSGFWVFFGAGTKLTVL,1.13,3/3,2/9
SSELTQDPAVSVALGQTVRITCEGDSLRSYYANWYQQKPGQAPILVIYGKNNRPSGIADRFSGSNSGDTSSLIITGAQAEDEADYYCSSRDHSGFNVFFGAGTKLTVL,1.65,3/3,1/9
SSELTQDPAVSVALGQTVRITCRGDSLRYYYANWYQQKPGQAPILVIYGKNNRPSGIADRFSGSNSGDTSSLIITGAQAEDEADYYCSSRDSSGFAVFFGAGTKLTVL,2.47,3/3,2/9
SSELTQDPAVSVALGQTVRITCEVDELRYYYANWYQQKPGQAPILVIYGKNNRPSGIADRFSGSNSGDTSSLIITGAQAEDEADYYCSSRDSSGFNVFFGAGTKLTVL,2.90,3/3,2/9
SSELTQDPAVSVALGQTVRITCEGDSLRYYYANWYQQKPGQAPILVIYGKNNRPSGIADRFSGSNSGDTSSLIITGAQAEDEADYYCSSRDCMGFVVFFGAGTKLTVL,2.96,2/3,0/9
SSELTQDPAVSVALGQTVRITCEGDSLRYYYANWYQQKPGQAPILVIYHKNNRPSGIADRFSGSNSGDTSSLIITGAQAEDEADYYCSSRWSSGFKVFFGAGTKLTVL,3.11,1/3,0/9
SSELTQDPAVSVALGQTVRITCEGDSLRYYYANWYQQKPGQAPILVIYYKNNRESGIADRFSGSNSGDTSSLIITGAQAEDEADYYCSSRDSSGFFVFFGAGTKLTVL,3.25,1/3,1/9
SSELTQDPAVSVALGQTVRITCEGDSLRYYYDNWYQQKPGQAPILVIYGKNNRPSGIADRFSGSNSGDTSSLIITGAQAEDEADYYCSSRDSSGFYEFFGAGTKLTVL,3.42,1/3,0/9
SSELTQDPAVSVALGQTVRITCEGDSLRYYYANWYQQKPGQAPILVIYGKNNWPSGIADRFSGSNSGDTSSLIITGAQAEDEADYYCSSRDSSGFVVMFGAGTKLTVL,3.45,1/3,4/9
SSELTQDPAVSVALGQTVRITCEGDSLRYYYANWYQQKPGQAPILVIYGKNNRPSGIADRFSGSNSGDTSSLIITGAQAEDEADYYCQSRDSSMFIVFFGAGTKLTVL,3.48,3/3,2/9
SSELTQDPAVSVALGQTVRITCEGDSLRYYYADWYQQKPGQAPILVIYGKNNRPSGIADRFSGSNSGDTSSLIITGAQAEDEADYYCSSRDSSGFLVFFGAGTKLTVL,3.53,2/3,2/9
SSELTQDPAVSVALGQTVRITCEGDSLRYYYAEWYQQKPGQAPILVIYGKNNRPSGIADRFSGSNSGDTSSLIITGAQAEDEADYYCSSRDQSGFHVFFGAGTKLTVL,3.80,2/3,3/9
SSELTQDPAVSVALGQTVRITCEGDSLRYYYANWYQQKPGQAPILVIYGKNNRIHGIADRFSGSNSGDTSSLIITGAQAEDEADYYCSSRDSSGFDVFFGAGTKLTVL,3.90,2/3,5/9
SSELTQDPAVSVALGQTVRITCEGDSLRVYYANWYQQKPGQAPILVIYGKNNRPSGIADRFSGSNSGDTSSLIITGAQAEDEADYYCSSRDSSGFWNFFGAGTKLTVL,4.28,1/3,1/9
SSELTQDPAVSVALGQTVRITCEGDSLRYYYANWYQQKPGQAPILVIYGKNNRPSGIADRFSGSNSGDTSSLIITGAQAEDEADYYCYSRDSSGCDVFFGAGTKLTVL,4.39,2/3,1/9
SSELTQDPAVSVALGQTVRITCEGDSLGYYYANWYQQKPGQAPILVIYGFNNRPSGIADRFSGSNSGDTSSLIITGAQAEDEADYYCSSRDSSGFLVFFGAGTKLTVL,4.45,2/3,2/9
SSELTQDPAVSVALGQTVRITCEGDSLRCYYAYWYQQKPGQAPILVIYGKNNRPSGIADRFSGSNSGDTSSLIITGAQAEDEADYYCSSRDSSGFVVFFGAGTKLTVL,nd,0/3,2/9
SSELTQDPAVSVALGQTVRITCEGDCLRYYYANWYQQKPGQAPILVIYGFNNRPSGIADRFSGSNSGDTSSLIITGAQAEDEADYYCSSRDSSGFHVFFGAGTKLTVL,nd,0/3,1/9
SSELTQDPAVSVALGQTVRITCEGDSLRYYYAKWYQQKPGQAPILVIYGKNNRPSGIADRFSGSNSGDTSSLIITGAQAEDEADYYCSSRDSSGFCVFFGAGTKLTVL,nd,0/3,2/9

Excerpt, the first 2 entries:

VL,"log10 Kd (nM), mean",detected,empty controls
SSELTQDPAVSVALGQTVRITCEGDSLRYYEANWYQQKPGQAPILVIYGKNNRPSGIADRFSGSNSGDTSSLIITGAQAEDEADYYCSSVDSSGFWVFFGAGTKLTVL,1.13,3/3,2/9
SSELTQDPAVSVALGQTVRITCEGDSLRSYYANWYQQKPGQAPILVIYGKNNRPSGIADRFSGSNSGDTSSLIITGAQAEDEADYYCSSRDHSGFNVFFGAGTKLTVL,1.65,3/3,1/9